In this assay the test system is NIH3T3. Nature of the assay: In vitro cytotoxicity was evaluated in mouse embryo BALB/c 3T3 cells. Particulars: read-out: LC50. In kind it is functional.

Turning to `NP(=O)(O)N(CCCl)CCCl`, the CC50 was determined as 3000 nM.

The values above are taken from ChEMBL document CHEMBL1130863, “N3-methyl-mafosfamide as a chemically stable, alternative prodrug of mafosfamide” (1998).
